Patent US20250186489A1, “REPROGRAMMING OF CELLS TO TYPE 1 CONVENTIONAL DENDRITIC CELLS OR ANTIGEN-PRESENTING CELLS” (Asgard Therapeutics AB, priority 2021, published 2025)

System: human embryonic fibroblasts (HEF)
Assay: cDC1 reprogramming efficiency of human embryonic fibroblasts, flow cytometry for CD45+HLA-DR+ cells at day 9
Type: cell-based
Conditions: HEF with Dox-inducible PIB
Experimental: HEFs, HDFs and Clec9a-tdTomato MEFs were seeded at a density of 40,000 cells per well and MSCs at a density of 50,000 cells per well on 0.1% gelatin coated 6-well plates. On the following day, cells were incubated overnight with either a ratio of 1:1 TetO-PIB and M2rtTA, SFFV-PIB-GFP or SFFV-GFP lentiviral particles in media supplemented with 8 μg/ml polybrene. Cells were transduced overnight twice in consecutive days and media replaced in between. After the second transduction, media was replaced by normal growth media (day 0). When using TetO-PIB, media was supplemented with Dox (1 μg/ml). Media was changed every 2-3 days for the duration of cultures. […]
For the analysis of surface marker expression, human and mouse cells were dissociated and incubated with antibodies diluted in PBS 5% FBS at 4° C. for 30 minutes in the presence of mouse or rat serum (1/100, GeneTex), for human and mouse cells respectively, to block unspecific binding. Cells were washed and resuspended in PBS 5% FBS and analyzed in BD FACSCanto II or BD LSRFortessa flow cytometers (BD Biosciences), unless stated otherwise. […] Flow cytometry data were analyzed using FlowJo software (FLOWJO, LLC, version 10.6.1). […]
17 human hematopoietic cytokines including inflammatory mediators (Table 3) were individually added to the culture media 2 days after PIB induction in HEFs, and reprogramming efficiency was measured at day 9. […]

B1: IFN-β: cytokine (protein, UniProt P01574 22-187, looked up)
Interferon beta: MSYNLLGFLQRSSNFQCQKLLWQLNGRLEYCLKDRMNFDIPEEIKQLQQFQKEDAALTIYEMLQNIFAIFRQDSSSTGWNETIVENLLANVYHQINHLKTVLEEKLEKEDFTRGKLMSSLHLKRYYGRILHYLKAKEYSHCAWTIVRVEILRNFYFINRLTGYLRN
fold increase in reprogramming efficiency versus condition without cytokines: 4 fold
